The results in this text go back to patent publication US9242969B2, “Biaryl amide compounds as kinase inhibitors” (Novartis AG, priority 2013, dated 2016).

Protein sequences, listed by entry. Tags and fused reporters are not part of them.
UniProt P04049, whole entry Y340E/Y341E: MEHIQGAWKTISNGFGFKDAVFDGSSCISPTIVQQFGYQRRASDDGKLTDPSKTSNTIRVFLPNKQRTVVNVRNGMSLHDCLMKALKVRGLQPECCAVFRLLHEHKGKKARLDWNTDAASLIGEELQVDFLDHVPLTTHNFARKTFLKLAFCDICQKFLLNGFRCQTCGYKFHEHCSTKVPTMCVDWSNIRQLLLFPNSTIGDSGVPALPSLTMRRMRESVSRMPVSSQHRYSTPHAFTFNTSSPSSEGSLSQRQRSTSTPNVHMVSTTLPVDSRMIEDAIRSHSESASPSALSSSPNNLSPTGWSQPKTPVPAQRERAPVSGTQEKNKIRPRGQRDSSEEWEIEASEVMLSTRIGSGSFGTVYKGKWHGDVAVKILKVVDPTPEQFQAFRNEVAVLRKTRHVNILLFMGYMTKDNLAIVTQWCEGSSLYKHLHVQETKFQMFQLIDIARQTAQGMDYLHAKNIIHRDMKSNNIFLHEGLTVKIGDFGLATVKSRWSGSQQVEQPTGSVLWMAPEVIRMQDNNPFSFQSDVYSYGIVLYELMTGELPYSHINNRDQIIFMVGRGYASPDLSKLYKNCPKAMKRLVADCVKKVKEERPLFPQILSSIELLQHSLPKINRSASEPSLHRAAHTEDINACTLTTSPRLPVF

One test has as its target C-Raf FL (full-length C-Raf with Y340E and Y341E activating mutations) (Homo sapiens (Human), UniProt P04049, Y340E/Y341E). Type of test: biochemical.
Conditions: not given
`Cc1ccc(NC(=O)c2cccc(C(F)(F)F)c2)cc1-c1cc(N2CCOCC2)nc(-n2cc(C(C)(C)O)nn2)n1` [Example 37, N-(3-(2-(4-(2-hydroxypropan-2-yl)-1H-1,2,3-triazol-1-yl)-6-morpholinopyrimidin-4-yl)-4-methylphenyl)-3-(trifluoromethyl)benzamide] gave a 50% inhibitory concentration (IC50) of 198 pM.

The same test, now with this note: full-length c-Raf 4 pM, ATP 3 uM, 10 nM biotinylated MEK1 kinase dead.
In the case of `Cc1ccc(C(=O)Nc2cccc(C(F)(F)F)c2)cc1-c1cc(N2CCOCC2=O)nc(N2CCOCC2)n1` [Example 4, 4-methyl-3-(2-morpholino-6-(3-oxomorpholino)pyrimidin-4-yl)-N-(3-(trifluoromethyl)phenyl)benzamide], half-maximal inhibition (IC50) was put at 431 pM.

With `Cc1ncc(NC(=O)c2cccc(C(F)(F)F)c2)cc1-c1cc(N2CCOCC2=O)nc(N2CCOCC2)n1` [Example 5], the IC50 is 713 pM.

With `Cc1ccc(C(=O)Nc2cccc(C(F)(F)F)c2)cc1-c1nc(N2CCOCC2)cc(N2CCOCC2)n1` [Example 14, 3-(4,6-dimorpholinopyrimidin-2-yl)-4-methyl-N-(3-(trifluoromethyl)phenyl)benzamide], it took 616 pM to reach half-maximal inhibition (IC50). This IC50 and that of the compound before are within 1.5-fold of each other.

As to `Cc1ccc(NC(=O)c2cccc(C(C)(C)C#N)c2)cc1-c1cc(N2CCOCC2)nc(N2CCOCC2)n1` [Example 16, 3-(2-cyanopropan-2-yl)-N-(3-(2,6-dimorpholinopyrimidin-4-yl)-4-methylphenyl)benzamide], the half-inhibitory concentration (IC50) amounted to 299 pM.

In turn, `Cc1ccc(NC(=O)c2cc(CN(C)C)cc(C(F)(F)F)c2)cc1-c1cc(N2CCOCC2)nc(N2CCOCC2)n1` [Example 20] had an IC50 of 516 pM.

Compound `CCN1CCN(c2cc(C(=O)Nc3ccc(C)c(-c4cc(N5CCOCC5)nc(N5CCOCC5)n4)c3)cc(C(F)(F)F)c2)CC1` [Example 21, N-(3-(2,6-dimorpholinopyrimidin-4-yl)-4-methylphenyl)-3-(4-ethylpiperazin-1-yl)-5-(trifluoromethyl)benzamide] gave an IC50 of 905 pM.

As to `Cc1ccc(NC(=O)c2cccc(OC(F)(F)F)c2)cc1-c1cc(N2CCOCC2)nc(N2CCOCC2)n1` [Example 22, N-(3-(2,6-dimorpholinopyrimidin-4-O-4-methylphenyl)-3-trifluoromethoxy)benzamide], the IC50 amounted to 202 pM.

Regarding `Cc1ccc(NC(=O)c2cccc(S(C)(=O)=O)c2)cc1-c1cc(N2CCOCC2)nc(N2CCOCC2)n1` [Example 23, N-(3-(2,6-dimorpholinopyrimidin-4-yl)-4-methylphenyl)-3-(methylsulfonyl)benzamide], the IC50 was 860 pM. Compared with the last compound, the IC50 is about 4.3-fold higher.

For the compound `Cc1ccc(NC(=O)c2cc(C(C)(C)C)no2)cc1-c1cc(N2CCOCC2)nc(N2CCOCC2)n1` [Example 24, 3-(tert-butyl)-N-(3-(2,6-dimorpholinopyrimidin-4-yl)-4-methylphenyl)isoxazole-5-carboxamide], the IC50 was 328 pM.

`Cc1ccc(NC(=O)c2cc(C(C)(C)C)on2)cc1-c1cc(N2CCOCC2)nc(N2CCOCC2)n1` [Example 25, 5-(tert-butyl)-N-(3-(2,6-dimorpholinopyrimidin-4-yl)-4-methylphenyl)isoxazole-3-carboxamide] showed an IC50 of 352 pM.

`Cc1ccc(NC(=O)c2csc(C(F)(F)F)n2)cc1-c1cc(N2CCOCC2)nc(N2CCOCC2)n1` [Example 26, N-(3-(2,6-dimorpholinopyrimidin-4-yl)-4-methylphenyl)-2-(trifluoromethyl)thiazole-4-carboxamide] yielded an IC50 of 514 pM.

On to `Cc1ccc(NC(=O)c2cccc(C(F)(F)F)c2)cc1-c1cc(N2CCOCC2)nc(S(C)(=O)=O)n1` [Example 27, N-(4-methyl-3-(2-(methylsulfonyl)-6-morpholinopyrimidin-4-yl)phenyl)-3-(trifluoromethyl)benzamide], for which the IC50 is 110 pM.

Turning to `CCNc1nc(-c2cc(NC(=O)c3cccc(C(F)(F)F)c3)ccc2C)cc(N2CCOCC2)n1` [Example 28, N-(3-(2-(ethylamino)-6-morpholinopyrimidin-4-yl)-4-methylphenyl)-3-(trifluoromethyl)benzamide], inhibition was half-maximal at 214 pM (IC50).

`Cc1ccc(NC(=O)c2cccc(C(F)(F)F)c2)cc1-c1cc(N2CCOCC2)nc(N2CC3(COC3)C2)n1` [Example 29, N-(4-methyl-3-(6-morpholino-2-(2-oxa-6-azaspiro[3.3]heptan-6-yl)pyrimidin-4-yl)phenyl)-3-(trifluoromethyl)benzamide] came in with a half-inhibitory concentration (IC50) of 421 pM.

`CNc1nc(-c2cc(NC(=O)c3cccc(C(F)(F)F)c3)ccc2C)cc(N2CCOCC2)n1` [Example 30, N-(4-methyl-3-(2-(methylamino)-6-morpholinopyrimidin-4-yl)phenyl)-3-(trifluoromethyl)benzamide] registered an IC50 of 322 pM.

The compound `Cc1ccc(NC(=O)c2cccc(C(F)(F)F)c2)cc1-c1cc(N2CCOCC2)nc(NCCO)n1` [Example 31, N-(3-(2-((2-hydroxyethyl)amino)-6-morpholinopyrimidin-4-yl)-4-methylphenyl)-3-(trifluoromethyl)benzamide] registered a half-inhibitory concentration (IC50) of 210 pM.

Take `Cc1ccc(NC(=O)c2cccc(C(F)(F)F)c2)cc1-c1cc(N2CCOCC2)nc(N2CCC(O)C2)n1` (stereo not shown) [Example 32, N-(3-(2-(3-hydroxypyrrolidin-1-yl)-6-morpholinopyrimidin-4-yl)-4-methylphenyl)-3-(trifluoromethyl)benzamide]: inhibition was half-maximal at 510 pM (IC50).

As to `Cc1ccc(NC(=O)c2cccc(C(F)(F)F)c2)cc1-c1cc(N2CCOCC2)nc(-n2ccnc2)n1` [Example 33, N-(3-(2-(1H-imidazol-1-yl)-6-morpholinopyrimidin-4-yl)-4-methylphenyl)-3-(trifluoromethyl)benzamide], the IC50 was found to be 134 pM.

For the compound `Cc1ccc(NC(=O)c2cccc(C(F)(F)F)c2)cc1-c1cc(N2CCOCC2)nc(NS(C)(=O)=O)n1` [Example 35, N-(4-methyl-3-(2-(methylsulfonamido)-6-morpholinopyrimidin-4-yl)phenyl)-3-(trifluoromethyl)benzamide], half-maximal inhibition (IC50) required 634 pM.

In turn, `Cc1ccc(NC(=O)c2cccc(C(F)(F)F)c2)cc1-c1cc(N2CCOCC2)nc(N2CCCC2=O)n1` [Example 36, N-(4-methyl-3-(6-morpholino-2-(2-oxopyrrolidin-1-yl)pyrimidin-4-yl)phenyl)-3-(trifluoromethyl)benzamide] had an IC50 of 456 pM.

Compound `Cc1ccc(NC(=O)c2cccc(C(F)(F)F)c2)cc1-c1cc(N2CCOCC2)nc(NC(CO)CO)n1` [Example 39, N-(3-(2-((1,3-dihydroxypropan-2-yl)amino)-6-morpholinopyrimidin-4-yl)-4-methylphenyl)-3-(trifluoromethyl)benzamide] came in with an IC50 of 322 pM.

In the case of `Cc1ccc(NC(=O)c2cccc(C(F)(F)F)c2)cc1-c1cc(N2CCOCC2)nc(OCCO)n1` [Example 40, N-(3-(2-(2-hydroxyethoxy)-6-morpholinopyrimidin-4-yl)-4-methylphenyl)-3-(trifluoromethyl)benzamide], 132 pM corresponded to half-maximal inhibition (IC50).

With `Cc1ccc(NC(=O)c2cccc(C(F)(F)F)c2)cc1-c1cc(N2CC3(COC3)C2)nc(N2CCOCC2)n1` [Example 47, N-(4-methyl-3-(2-morpholino-6-(2-oxa-6-azaspiro[3.3]heptan-6-yl)pyrimidin-4-yl)phenyl)-3-(trifluoromethyl)benzamide], the IC50 turned out to be 356 pM.

Consider `Cc1ccc(NC(=O)c2cccc(C(F)(F)F)c2)cc1-c1cc(N2CCOC[C@H]2CO)nc(N2CCOCC2)n1` [Example 48, (R)—N-(3-(6-(3-(hydroxymethyl)morpholino)-2-morpholinopyrimidin-4-yl)-4-methylphenyl)-3-(trifluoromethyl)benzamide], for which half-maximal inhibition (IC50) was put at 347 pM.

Usually IC50 stands for the point on the concentration scale where inhibition reaches its midpoint.
